Test system: Tau0N4R-TM-tGFP U2OS cells
Assay: Tau phosphorylation
Conditions: 0.5–10 μM, 6 hrs

c1ccc(CNc2nc(Nc3cc(C4CC4)[nH]n3)c3sccc3n2)cc1 [Compound 4, N2-benzyl-N4-(5-cyclopropyl-1H-pyrazol-3-yl)thieno[3,2-d]pyrimidine-2,4-diamine]
effect on bundle formation over concentration range: dose-dependent effect

From article PMC9704499 (European journal of medicinal chemistry, 2021)
